Measurements published in patent publication US20070207946A1, “Dipeptidyl peptidase IV inhibitors and their uses for lowering blood pressure levels” (priority 2001, published 2007).

Chains of the proteins cited; added tags and fusions are not shown. Residues count along the entry.
UniProt P14740, 38-767 limits assumed: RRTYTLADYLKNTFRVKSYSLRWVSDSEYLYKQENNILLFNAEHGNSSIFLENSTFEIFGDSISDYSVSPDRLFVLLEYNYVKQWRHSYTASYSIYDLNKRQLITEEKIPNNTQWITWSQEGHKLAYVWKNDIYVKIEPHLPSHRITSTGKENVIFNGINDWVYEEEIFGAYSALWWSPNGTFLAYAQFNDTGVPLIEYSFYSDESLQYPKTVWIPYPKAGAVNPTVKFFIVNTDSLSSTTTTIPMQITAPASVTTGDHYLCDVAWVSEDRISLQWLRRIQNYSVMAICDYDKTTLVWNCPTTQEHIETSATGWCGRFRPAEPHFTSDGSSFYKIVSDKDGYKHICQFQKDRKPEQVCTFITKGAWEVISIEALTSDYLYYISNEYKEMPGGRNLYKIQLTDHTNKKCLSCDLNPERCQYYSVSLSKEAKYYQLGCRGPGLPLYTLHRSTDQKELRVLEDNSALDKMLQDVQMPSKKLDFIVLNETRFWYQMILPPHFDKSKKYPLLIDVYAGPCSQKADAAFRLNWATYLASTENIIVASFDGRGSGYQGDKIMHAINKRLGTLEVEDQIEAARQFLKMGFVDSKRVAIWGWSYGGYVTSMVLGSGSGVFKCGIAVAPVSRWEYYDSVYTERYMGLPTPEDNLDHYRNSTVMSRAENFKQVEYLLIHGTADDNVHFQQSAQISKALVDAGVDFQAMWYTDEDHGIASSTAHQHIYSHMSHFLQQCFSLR

Biological target: T1, plasma DPIV activity (Rattus norvegicus, UniProt P14740)
T1 construct: from tissue; host or cells: plasma of Wistar rats
Assay: DPIV inhibiting activity after intravasal and oral administration to Wistar rats
Format: in vivo
Conditions: dose 100 mg/kg, oral

in vivo DPIV-inhibition at tmax, p.o.	Structure (SMILES)
no inhibition	CC[C@H](C)[C@H](N)C(=O)N1CCC[C@H]1C(=O)N[C@H](C(=O)O)[C@@H](C)CC [Diprotin A, Ile-Pro-Ile, reference compound]
no inhibition	CC(C)C[C@H](NC(=O)[C@@H]1CCCN1C(=O)[C@@H](N)C(C)C)C(=O)O [Diprotin B, Val-Pro-Leu, reference compound]
